Assay results reported in patent US8591876B2, “Methods of decreasing sebum production in the skin” (priority 2010, dated 2013).
Read-outs that look alike come from different tables or passages of the source.

Tested on: insulin-stimulated SEB-1 sebocytes
Details: insulin 1 μg/mL; for Total Lipid Production: average ± SEM from three independent experiments; for % Reduction of total lipid production: versus vehicle

For S-nitrogluthione, the “Total Lipid Production” value (0.0012 mg/ml) was 3630 ± 448 counts per minute/10^6 cells/hr, the “% Reduction of total lipid production” value (0.0012 mg/ml) was 18.1% and the “Total Lipid Production” value (0.012 mg/ml) was 3430 ± 459 counts per minute/10^6 cells/hr. The “% Reduction of total lipid production” value (0.012 mg/ml) was 22.6%, the “Total Lipid Production” value (0.12 mg/ml) was 4100 ± 740 counts per minute/10^6 cells/hr and the “% Reduction of total lipid production” value (0.12 mg/ml) was 7.4%.
